From patent US20140120543A1 (INSTITUTE GUSTAVE ROUSSY, published 2014)

Target: T1, ERCC1-202 isoform (isoform 202 of the ERCC1 protein) (human, UniProt P07992 1-297)
T1 construct: Re-expressed in ERCC1-deficient A549 clone 216; Detected inside fixed, permeabilised cells by PLA, not on the cell surface
T1 sequence: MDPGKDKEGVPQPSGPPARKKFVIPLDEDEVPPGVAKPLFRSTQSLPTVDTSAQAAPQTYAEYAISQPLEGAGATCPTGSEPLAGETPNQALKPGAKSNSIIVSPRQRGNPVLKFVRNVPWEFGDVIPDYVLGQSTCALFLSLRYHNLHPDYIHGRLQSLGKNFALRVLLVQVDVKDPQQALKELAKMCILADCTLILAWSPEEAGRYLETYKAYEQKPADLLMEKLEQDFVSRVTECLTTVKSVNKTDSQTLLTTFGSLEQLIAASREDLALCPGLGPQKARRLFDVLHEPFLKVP
Experiment: proximity ligation assay (Duolink), ERCC1 detected with FL297 antibody
Method: ERCC1 was detected using FL297 antibody.
Protein interactions were studied using the Duolink II proximity ligation assays (PLA) kit (Olink, Uppsala, Sweden). Coverslips were processed according to the manufacturer's instructions. In brief, the cells were fixed with methanol, permeabilized with triton, stained with the primary antibodies, and then incubated with the secondary oligonucleotide-linked antibodies. The oligonucleotides were hybridized, ligated, amplified, and detected using a fluorescent probe.

binding result: binds
B1: XPA protein (xeroderma pigmentosum group A) (other)
chain: AAADGALPEAAALEQPAELPASVRASIERKRQRALMLRQARLAARPYSATAAAATGGMANVKAAPKIIDTGGGFILEEEEEEEQKIGKVVHQPGPVMEFDYVICEECGKEFMDSYLMNHFDLPTCDNCRDADDKHKLITKTEAKQEYLLKDCDLEKREPPLKFIVKKNPHHSQWGDMKLYLKLQIVKRSLEVWGSQEALEEAKEVRQENREKMKQKKFDKKVKELRRAVRSSVWKRETIVHQHEYGPEENLEDDMYRKTCTMCGHELTYEKM
notes: Endogenous protein of the human A549 cell line, inside fixed cells
